Measured values published in paper PMC6469174 (Pharmaceuticals, 2019).

Protein sequences, listed by entry. Tags and fused reporters are not part of them. Residues count along the entry.
UniProt P01375, 77-233: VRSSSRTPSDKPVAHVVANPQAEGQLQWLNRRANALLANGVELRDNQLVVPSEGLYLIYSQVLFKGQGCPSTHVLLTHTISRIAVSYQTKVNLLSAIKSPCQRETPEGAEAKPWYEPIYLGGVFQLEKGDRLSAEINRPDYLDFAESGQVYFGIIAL

B1: N-deglycosylated Altebrel™ (proposed etanercept biosimilar), lot 9202008 (Fc fusion, UniProt P20333 23-257, looked up)
chain: LPAQVAFTPYAPEPGSTCRLREYYDQTAQMCCSKCSPGQHAKVFCTKTSDTVCDSCEDSTYTQLWNWVPECLSCGSRCSSDQVETQACTREQNRICTCRPGWYCALSKQEGCRLCAPLRKCRPGFGVARPGTETSDVVCKPCAPGTFSNTTSSTDICRPHQICNVVAIPGNASMDAVCTSTSPTRSMAPGAVHLPQPVSTRSQHTQPTPEPSTAPSTSFLLPMGPSPPAEGSTGD
modifications: N-glycans (asparagine 149, 171, 317) removed with PNGase F; O-glycosylated; C-terminal lysine cleaved
B2: Enbrel® (etanercept, the originator), lot H17609 (Fc fusion, UniProt P20333 23-257, looked up)
chain: B1 chain
modifications: N-glycosylated at asparagine 149 and 171 (TNFr domain) and asparagine 317 (Fc domain); O-glycosylated (N-terminal peptide, linker domain, hinge, e.g. serine 259); C-terminal lysine cleaved; methionine oxidation in part (Met 30, 187, 272, 378, 448)
B3: Altebrel™ (the proposed etanercept biosimilar), lot 9202008 (Fc fusion, UniProt P20333 23-257, looked up)
chain: B1 chain
modifications: N-glycosylated at asparagine 149 and 171 (TNFr domain) and asparagine 317 (Fc domain); O-glycosylated (N-terminal peptide, linker domain, hinge, e.g. serine 259); C-terminal lysine cleaved; methionine oxidation in part (Met 30, 187, 272, 378, 448); amidation at glutamic acid 292 higher than in the originator
B4: N-deglycosylated Enbrel® (etanercept), lot H17609 (Fc fusion, UniProt P20333 23-257, looked up)
chain: B1 chain
modifications: N-glycans (asparagine 149, 171, 317) removed with PNGase F; O-glycosylated; C-terminal lysine cleaved

Molecular target: TNF-α (UniProt P01375 77-233)
Experiment: cell-based or functional assay

Binder	potency ratio to the in-house standard (pool of three batches of the originator); neutralisation of TNF-α-induced necroptosis of L929 cells, Alamar blue; Average	potency ratio to the in-house standard (pool of three batches of the originator); neutralisation of TNF-α-induced necroptosis of L929 cells, Alamar blue; Replicate 1	potency ratio to the in-house standard (pool of three batches of the originator); neutralisation of TNF-α-induced necroptosis of L929 cells, Alamar blue; Replicate 2	potency ratio to the in-house standard (pool of three batches of the originator); neutralisation of TNF-α-induced necroptosis of L929 cells, Alamar blue; treatment control sample; Average	potency ratio to the in-house standard (pool of three batches of the originator); neutralisation of TNF-α-induced necroptosis of L929 cells, Alamar blue; treatment control sample; Replicate 1	potency ratio to the in-house standard (pool of three batches of the originator); neutralisation of TNF-α-induced necroptosis of L929 cells, Alamar blue; treatment control sample; Replicate 2
B1	0.87	0.79	0.95	–	–	–
B2	–	–	–	0.97	0.85	1.08
B3	–	–	–	0.88	0.84	0.91
B4	0.87	0.79	0.95	–	–	–
